A short description of this data set: Thermodynamic solubility determination. It is filed as physicochemical. Particulars: phosphate buffer, pH 7.4, TFA salt, pH 7.4, 37 °C; read-out: Solubility Therm. Here is the method:
Thermodynamic Solubility Determination
The test substance is dissolved in the solvent system of interest at a constant temperature. HPLC determination of the concentration of the solute in the solution, which must not contain any undissolved particles, is used to quantify the solubility. Composition of standard buffer solutions:
Phosphate buffer pH 7.4: 50 mL of 0.2 M monobasic potassium phosphate solution were placed in a 200-mL volumetric flask, 39.1 mL of 0.2 M sodium hydroxide solution was added followed by water to the appropriate volume. Preparation of the standard solution: The test substance (generally 1 mg) was placed into an amber-glass volumetric flask and dissolved completely in a solution of acetonitrile/methanol (1:1; V/V). If the substance is not soluble in this solvent, a different solvent may be used. The target concentration is between 0.1 and 0.2 mg/mL. The standard solution and test sample (see below) use the same test substance. […] After 24 hours, the suspension was filtered and the concentration of dissolved substance determined by HPLC (see Chromatographic Conditions). If the substance has completely dissolved, the result is stated as > x μg/mL, calculated from the sample weight taken and the volume of solvent used. […]

Broadly, the solubility is how much of the substance goes into solution per volume. Turning to `Cn1ncc2cc(-c3cnc(N)c(Cl)c3N3CCC4(CC3)CNC(=O)O4)ccc21` [Compound 110], the solubility at 24 h stood at 6 µg/mL.

Source of the values: paper PMC5362750, “Discovery of Potent, Selective, and Orally Bioavailable Small-Molecule Modulators of the Mediator Complex-Associated Kinases CDK8 and CDK19” (Journal of Medicinal Chemistry, 2016).
